Measured values from ChEMBL document CHEMBL6096694, “Repurposing of Agrochemicals as ATTRv Amyloidosis Inhibitors” (J Med Chem, 2025).

How the values were obtained:
Transthyretin [1] = molecular target: Transthyretin (Homo sapiens, UniProt P02766, V50M); assay: Inhibition of acid-mediated TTR V30M mutant (unknown origin) aggregation preincubated for 30 mins followed by sodium acetate buffer at pH 5.2 addition and measured after 7 days by absorbance based turbidity assay
Transthyretin [2] = molecular target: T1, Transthyretin (Homo sapiens, UniProt P02766); assay: Binding affinity to wildtype TTR (unknown origin) assessed as dissociation constant by ITC analysis
Transthyretin [3] = molecular target: T1, Transthyretin; settings: dose 60.0 µM

Oc1cc(Cl)ccc1Oc1ccc(Cl)cc1Cl [TRICLOSAN]
Ki (Transthyretin [1]): 18 µM | Kd (Transthyretin [2]): 484 nM | deltaG (Transthyretin [3]): -8.61 kcal/mol
